Experiments:
[1] = molecular target: Ionotropic glutamate receptor NMDA 1/2C (Homo sapiens, UniProt Q05586+Q14957); assay: Positive allosteric modulation of recombinant human GluN1/GluN2C receptor stably expressed in HEK293 cells assessed as increase in glycine/L-glutamate-induced channel current at -70 mV holding potential by whole cell patch clamp method relative to control; assay type: cell-based; settings: filed as positive allosteric modulator
[2] = molecular target: Ionotropic glutamate receptor NMDA 1/2D (Homo sapiens) (UniProt Q05586+O15399); assay: Positive allosteric modulation of recombinant human GluN1/GluN2D receptor stably expressed in HEK293 cells assessed as increase in glycine/L-glutamate-induced channel current at -70 mV holding potential by whole cell patch clamp method relative to control; assay type: cell-based; settings: filed as positive allosteric modulator

The chains behind the UniProt entries cited, without tags or fusion partners. Where a name states a change or a piece, a line headed by the entry shows the natural chain unless it says otherwise.
UniProt Q14957: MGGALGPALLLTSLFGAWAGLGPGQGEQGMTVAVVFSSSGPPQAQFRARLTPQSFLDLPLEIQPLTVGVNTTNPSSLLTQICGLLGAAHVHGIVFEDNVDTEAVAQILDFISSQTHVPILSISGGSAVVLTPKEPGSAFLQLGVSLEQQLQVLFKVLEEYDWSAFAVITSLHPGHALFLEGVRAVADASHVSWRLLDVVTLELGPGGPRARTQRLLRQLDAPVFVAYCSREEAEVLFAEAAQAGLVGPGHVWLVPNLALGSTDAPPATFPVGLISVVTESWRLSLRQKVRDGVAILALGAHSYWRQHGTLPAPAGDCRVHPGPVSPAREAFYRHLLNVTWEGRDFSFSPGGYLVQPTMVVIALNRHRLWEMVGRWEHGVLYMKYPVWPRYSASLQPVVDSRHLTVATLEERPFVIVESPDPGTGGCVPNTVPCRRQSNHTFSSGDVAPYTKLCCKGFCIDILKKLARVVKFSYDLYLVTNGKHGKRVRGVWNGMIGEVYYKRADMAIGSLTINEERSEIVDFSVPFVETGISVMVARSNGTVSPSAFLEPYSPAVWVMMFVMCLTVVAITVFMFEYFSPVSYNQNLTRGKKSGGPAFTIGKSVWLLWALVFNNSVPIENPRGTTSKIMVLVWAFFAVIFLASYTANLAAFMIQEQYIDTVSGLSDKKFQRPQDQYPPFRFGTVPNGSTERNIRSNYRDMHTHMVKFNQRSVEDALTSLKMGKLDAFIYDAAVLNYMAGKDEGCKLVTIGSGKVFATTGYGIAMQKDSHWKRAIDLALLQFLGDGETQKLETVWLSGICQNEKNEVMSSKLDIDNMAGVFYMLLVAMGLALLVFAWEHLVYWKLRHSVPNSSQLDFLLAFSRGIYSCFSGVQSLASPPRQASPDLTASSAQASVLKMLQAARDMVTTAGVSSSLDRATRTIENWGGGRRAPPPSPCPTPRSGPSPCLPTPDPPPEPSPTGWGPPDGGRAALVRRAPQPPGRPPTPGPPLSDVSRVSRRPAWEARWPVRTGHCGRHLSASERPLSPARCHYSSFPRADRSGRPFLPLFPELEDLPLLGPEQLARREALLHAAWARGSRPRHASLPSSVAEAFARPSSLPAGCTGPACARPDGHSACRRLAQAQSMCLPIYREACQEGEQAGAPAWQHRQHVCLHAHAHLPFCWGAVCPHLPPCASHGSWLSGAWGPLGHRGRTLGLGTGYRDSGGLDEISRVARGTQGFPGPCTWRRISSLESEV
UniProt O15399, whole entry, looked up: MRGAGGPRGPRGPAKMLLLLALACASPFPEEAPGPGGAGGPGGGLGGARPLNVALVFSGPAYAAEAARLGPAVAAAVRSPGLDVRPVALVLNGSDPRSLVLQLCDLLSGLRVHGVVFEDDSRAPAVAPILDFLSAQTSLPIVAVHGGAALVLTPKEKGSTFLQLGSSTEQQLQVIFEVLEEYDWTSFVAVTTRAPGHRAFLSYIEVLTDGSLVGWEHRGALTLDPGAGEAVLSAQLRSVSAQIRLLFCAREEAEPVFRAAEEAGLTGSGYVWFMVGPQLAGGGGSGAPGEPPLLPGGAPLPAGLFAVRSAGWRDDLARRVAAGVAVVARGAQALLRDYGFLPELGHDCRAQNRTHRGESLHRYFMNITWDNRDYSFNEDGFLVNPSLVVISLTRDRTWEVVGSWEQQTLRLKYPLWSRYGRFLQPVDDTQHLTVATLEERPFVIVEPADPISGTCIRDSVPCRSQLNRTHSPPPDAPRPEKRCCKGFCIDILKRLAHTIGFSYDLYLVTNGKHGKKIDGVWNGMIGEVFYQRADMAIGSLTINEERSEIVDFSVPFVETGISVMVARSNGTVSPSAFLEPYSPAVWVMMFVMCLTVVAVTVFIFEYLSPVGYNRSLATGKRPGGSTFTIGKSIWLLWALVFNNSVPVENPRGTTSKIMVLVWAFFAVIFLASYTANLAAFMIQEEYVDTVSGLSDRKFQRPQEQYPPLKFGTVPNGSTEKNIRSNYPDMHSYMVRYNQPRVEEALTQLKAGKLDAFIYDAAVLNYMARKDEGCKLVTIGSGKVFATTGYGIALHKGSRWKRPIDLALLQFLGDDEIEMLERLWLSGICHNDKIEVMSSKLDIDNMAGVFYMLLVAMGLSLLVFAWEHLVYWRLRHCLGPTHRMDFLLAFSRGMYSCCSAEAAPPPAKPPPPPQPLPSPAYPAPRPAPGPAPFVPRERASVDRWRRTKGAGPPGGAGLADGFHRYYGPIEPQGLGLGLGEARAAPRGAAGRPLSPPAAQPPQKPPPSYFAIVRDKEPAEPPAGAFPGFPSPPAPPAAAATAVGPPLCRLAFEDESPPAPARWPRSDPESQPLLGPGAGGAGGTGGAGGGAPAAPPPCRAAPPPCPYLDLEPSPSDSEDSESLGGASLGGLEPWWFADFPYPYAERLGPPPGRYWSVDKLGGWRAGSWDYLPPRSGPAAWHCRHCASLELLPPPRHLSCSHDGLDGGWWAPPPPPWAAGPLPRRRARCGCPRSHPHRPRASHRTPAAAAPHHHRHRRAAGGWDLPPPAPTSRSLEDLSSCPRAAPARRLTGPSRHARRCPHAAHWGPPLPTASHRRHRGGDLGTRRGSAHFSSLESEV

SMILES: C[C@H](CC[C@](C)(O)C(F)(F)F)[C@H]1CC[C@H]2[C@@H]3CC=C4C[C@@](C)(O)CC[C@]4(C)[C@H]3CC[C@]12C [DALZANEMDOR]
- Emax [1]: 86%
- Emax [2]: 130%

Reference: ChEMBL document CHEMBL5131569, “SAGE-718: A First-in-Class N-Methyl-d-Aspartate Receptor Positive Allosteric Modulator for the Potential Treatment of Cognitive Impairment” (J Med Chem, 2022)
